Earlier results, collected in US20060025484A1 (priority 2003, published 2006).

What was measured:
[1] = known for BCNU; cited from earlier work
[2] = known for BCNU; cited from earlier work; remark: listed apart in the source

Substance: bis-(2-chloroethyl)-1-nitrosourea
- Solubility in water [1]: low solubility in water
- Pulmonary fibroses [2]: can also cause pulmonary fibroses
- Toxicity for bone marrow and lungs [2]: high toxicity for bone marrow and the lungs
